# Binding of CDR-mutated scFvs to a peptide of the spike HR2 region

Data: MIT Lincoln Laboratory AlphaSeq set, Engelhart et al. 2022, doi:10.1038/s41597-022-01779-4, as distributed in FLAb.

Antigen: PDVDLGDISGINAS, a 14-residue peptide of the SARS-CoV-2 spike HR2 region.

Parent scFv Ab-14: VH joined to VL by a 15-residue (Gly4Ser)3 linker. Changes lie in the heavy chain CDRs alone.
VH: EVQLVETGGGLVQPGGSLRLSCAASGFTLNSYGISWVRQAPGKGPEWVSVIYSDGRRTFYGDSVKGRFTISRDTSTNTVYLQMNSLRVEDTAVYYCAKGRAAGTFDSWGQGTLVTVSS
VL: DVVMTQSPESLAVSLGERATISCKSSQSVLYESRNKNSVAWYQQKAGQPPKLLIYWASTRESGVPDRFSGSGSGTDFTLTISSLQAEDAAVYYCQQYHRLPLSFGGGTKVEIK

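Phage display of a naive human antibody library on the peptide gave the parent. In library AAYL49, one, two or three CDR residues were substituted; doubles and triples were drawn at random. In AlphaSeq, yeast of one mating type display the scFv and yeast of the other type display the target. The frequency of each diploid, read from paired DNA barcodes, reflects how well the two displayed proteins bind. Scores were corrected for input abundance and mapped to Kd with protein pairs of known affinity run in the same pool. Mating was done three times.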

Variants are written as CDR1, CDR2 and CDR3 of the heavy chain (limits as in the source). Parent: GFTLNSYGIS, VIYSDGRRTFYGDSVK, GRAAGTFDS.
This list gathers variants with a substitution at I34 (VH, numbered from residue 1).
The read-out is the apparent dissociation constant on a log10 scale (nM): the lower, the stronger.
Replicates are averaged; those with no signal do not enter the mean.
"not detected" marks a missing value. The strain was present, yet no cells mated with the target were sequenced in any replicate, which points to weak or no binding.
Empty control strains, which show no peptide, gave a signal in 15% of pairings with library AAYL49; the median was 4.06 and 95% of these signals were weaker than 2.83. No background was subtracted. Also given: how often the same scFv was detected with the empty control strains.
Parent in this assay: reference entry 0.65, copy in this library 4.11 (one replicate of three).

CDR-H1	CDR-H2	CDR-H3	log10 Kd (nM), mean	detected	empty controls
GFTLDSYGCS	VIYSDGRRTFYGDSVK	GREAGTFDS	1.73	3/3	4/9
GFTLNSTGWS	VIYSDGRRVFYGDSVK	GRAAGTFDS	not detected	0/3	0/9
GFTLNSYGRS	VIYSDWRRTFYGDSVK	GRAAGTFPS	4.93	3/3	9/9
GFTLQSYGVS	VIYSDGRRTFYGDSVK	GRAAGTFDL	0.77	3/3	0/9
GFTLNSYGYS	VIDLDGRRTFYGDSVK	GRAAGTFDS	not detected	0/3	1/9
GFTLNSYGRS	VIYSDGRRTFYGDFVK	GRAEGTFDS	not detected	0/3	2/9
GLTLNSYGTS	VIYSDGRRTFYGDSVK	GYAAGTFDS	not detected	0/3	1/9
GFTLNSYGTA	VIYSDGRRTFYGDSVK	GRAAGTFDS	3.36	3/3	0/9
GFTLNSYGRS	VCYSDGRRTFYGDSVK	GRAAGQFDS	4.18	2/3	4/9
GFTLDSYGHS	VIYSDGRRTFYGDSVK	GRAKGTFDS	not detected	0/3	1/9
GSTLNSYGTS	VIYSDGRRTFYGDSVK	GRAAGTFES	not detected	0/3	0/9
GFTLNSYGLS	VIYSDGRRSFYGDSVK	GRAAGTFDL	not detected	0/3	1/9
GFWLNSYGAS	VIYSDRRRTFYGDSVK	GRAAGTFDS	not detected	0/3	1/9
GFTLNSYGSS	LIYSDGRRIFYGDSVK	GRAAGTFDS	4.71	1/3	3/9
GFTLNSYGQS	VIYSDGRRTFYWDSVK	GRAAGIFDS	3.92	2/3	4/9
GFTLNSYGNS	VIYSDGRKTFYGDSVK	GRAAGTFRS	not detected	0/3	0/9
GFTLNSYGGS	WIYDDGRRTFYGDSVK	GRAAGTFDS	4.93	2/3	6/9
GFTLNSYGPS	VIKSDGRRTFYGDSVK	GRLAGTFDS	not detected	0/3	0/9
GFTLNSCGCS	PIYSDGRRTFYGDSVK	GRAAGTFDS	4.02	1/3	1/9
GFTLNSYGFS	VIYSDGRRTFYGDSVK	GRAAGTFDS	not detected	0/3	1/9
GFTLNSYGCS	VIYSDGRRTFYADCVK	GRAAGTFDS	not detected	0/3	0/9
GFTLNSYGTS	VIYSDGRRTFYGDSVK	GRAAKTFDS	5.35	1/3	2/9
GFTLNSYGQS	VIYSDGRRTFTGMSVK	GRAAGTFDS	3.27	1/3	2/9
GFTLNSYGKS	VIYHVGRRTFYGDSVK	GRAAGTFDS	not detected	0/3	0/9
GFTLNSYGAS	VIYSDGRRTFYGDTVK	GRAASTFDS	not detected	0/3	0/9
GFTLNSYGCS	VVYSDGRRTFYGDKVK	GRAAGTFDS	not detected	0/3	0/9
GFTLNWYGNS	VIYSDDRRTFYGDSVK	GRAAGTFDS	4.96	2/3	4/9
GFTYNSYGAS	VMYSDGRRTFYGDSVK	GRAAGTFDS	not detected	0/3	0/9
GFTLNSYGQS	VIYSDGRRTFYADSVK	VRAAGTFDS	not detected	0/3	0/9
GFTLNSYGCS	VIYSDGRWTFYGDSVK	GRAAGTFDS	3.41	1/3	1/9
GFTLNSYGDS	CIYVDGRRTFYGDSVK	GRAAGTFDS	4.45	2/3	2/9
GFTLNSYGDS	VIYSDGRRTFYGDSVK	GRAAGRFHS	not detected	0/3	0/9
GFTLNSYGGS	VIYSDGRRTFYGDSVK	GRAAGTSDY	4.42	2/3	3/9
GFTLNSYGAS	VIYSDGRRTFYGDSVK	GKQAGTFDS	2.40	1/3	0/9
GFTLYSYGTS	VIYSFGRRTFYGDSVK	GRAAGTFDS	not detected	0/3	0/9
GFTLNSYGQS	VIYNDGRRTFYGDSVK	VRAAGTFDS	not detected	0/3	0/9
GFTLNSYGWS	VIYSDGRRTFYGSSVK	GRAAGTFDS	not detected	0/3	1/9
GFTLNSCGSS	VIYSDGRRTFYGDSVK	GQAAGTFDS	not detected	0/3	0/9
GFTLNSYGKS	VIYSDGRRTFYGDSVK	GRMAGLFDS	4.60	1/3	0/9
GFTLNGYGGS	VIYSDGRRTCYGDSVK	GRAAGTFDS	not detected	0/3	2/9
GFTLNSYGLS	VIYSDGRRTKYGDSVK	GRAAGTVDS	not detected	0/3	0/9
GFTLNSYGCS	VIYSDGRRHFYGDSVK	GRAAGTFDS	not detected	0/3	0/9
GRTLNSYGCS	VIYTDGRRTFYGDSVK	GRAAGTFDS	3.59	1/3	3/9
GFTLNSYGRS	VWYGDGRRTFYGDSVK	GRAAGTFDS	not detected	0/3	3/9
VFTLNSYGES	VIYSDGRRTFYGDHVK	GRAAGTFDS	not detected	0/3	1/9
GFTLNHYGPS	VNYSDGRRTFYGDSVK	GRAAGTFDS	not detected	0/3	0/9
LFTLNSYGRS	VIYSDGRRTFYGDSVK	GREAGTFDS	0.34	3/3	1/9
GFTLNSYGLS	VIYSDGRFTFYGDSVK	GIAAGTFDS	not detected	0/3	0/9
GFTLNSYGDS	VIYSDGRRTFYGWSVK	GRAEGTFDS	3.29	1/3	1/9
GFTLNSYGVS	VIYSAGRRTFYGDSVK	GRAAGIFDS	4.87	3/3	6/9
GFTLNSYGLS	VIYSDGRRTFYGRSVK	GRAAGTFDS	5.15	1/3	2/9
GFTLNSYGCS	VIYSDGGRTDYGDSVK	GRAAGTFDS	4.00	2/3	2/9
GTTLNSYGTS	VIYSDGRRTFYGDSVK	GRAAGRFDS	not detected	0/3	0/9
GFTLNSYGVS	VIYSWGRRTFYGDSVK	GRAAGTFHS	not detected	0/3	0/9
GFTLNSYGSS	VIYSDGERTFYGDSVK	GRAAGTFDF	not detected	0/3	0/9
GFTLNSYGES	VQYSDGQRTFYGDSVK	GRAAGTFDS	not detected	0/3	0/9
LFTLNSYGFS	VIYSDMRRTFYGDSVK	GRAAGTFDS	not detected	0/3	1/9
GFTLQSYGKS	TIYSDGRRTFYGDSVK	GRAAGTFDS	2.81	1/3	1/9
GFTLNSYGSS	VIYTDARRTFYGDSVK	GRAAGTFDS	4.21	1/3	3/9
GFTLNSYGAS	VIYSDGRRTFYGSSVK	GRAAGTFDH	not detected	0/3	3/9
GFTLNRYGTS	VIYSDGRRTPYGDSVK	GRAAGTFDS	3.12	1/3	0/9
GFTLNSYGDS	VIPSDGRRTFYGDSFK	GRAAGTFDS	4.22	2/3	1/9

Excerpt, the final 7 entries:

{"CDR-H1": "GFTLNSYGES", "CDR-H2": "VQYSDGQRTFYGDSVK", "CDR-H3": "GRAAGTFDS", "log10 Kd (nM), mean": "not detected", "detected": "0/3", "empty controls": "0/9"}
{"CDR-H1": "LFTLNSYGFS", "CDR-H2": "VIYSDMRRTFYGDSVK", "CDR-H3": "GRAAGTFDS", "log10 Kd (nM), mean": "not detected", "detected": "0/3", "empty controls": "1/9"}
{"CDR-H1": "GFTLQSYGKS", "CDR-H2": "TIYSDGRRTFYGDSVK", "CDR-H3": "GRAAGTFDS", "log10 Kd (nM), mean": "2.81", "detected": "1/3", "empty controls": "1/9"}
{"CDR-H1": "GFTLNSYGSS", "CDR-H2": "VIYTDARRTFYGDSVK", "CDR-H3": "GRAAGTFDS", "log10 Kd (nM), mean": "4.21", "detected": "1/3", "empty controls": "3/9"}
{"CDR-H1": "GFTLNSYGAS", "CDR-H2": "VIYSDGRRTFYGSSVK", "CDR-H3": "GRAAGTFDH", "log10 Kd (nM), mean": "not detected", "detected": "0/3", "empty controls": "3/9"}
{"CDR-H1": "GFTLNRYGTS", "CDR-H2": "VIYSDGRRTPYGDSVK", "CDR-H3": "GRAAGTFDS", "log10 Kd (nM), mean": "3.12", "detected": "1/3", "empty controls": "0/9"}
{"CDR-H1": "GFTLNSYGDS", "CDR-H2": "VIPSDGRRTFYGDSFK", "CDR-H3": "GRAAGTFDS", "log10 Kd (nM), mean": "4.22", "detected": "2/3", "empty controls": "1/9"}